Test system: trypsin
Test: Pretreatment of peptides with trypsin
Assay type: in vitro ADME

## [Val]^1[Thr]^6-bradykinyl-Gln-Ser [Bk2]
HPLC and mass spectrometry, data not shown
  product released by trypsin pretreatment in vitro: release the active Bk fragment
Pretreatment with trypsin
  cleavage by trypsin (site): Arg^9-Gln^10

From paper PMC6271500, “Bowman-Birk Protease Inhibitor from Vigna unguiculata Seeds Enhances the Action of Bradykinin-Related Peptides” (Molecules, 2014)
